According to US20170319643A1:

Target: neutrophil elastase
Assay: cell-based or functional assay

elastase inhibitor capacity (fluorometric elastase activity assay), compared with free A1AT: 5 fold
Substance: alpha-1-antitrypsin bound to reconstituted HDL (from UniProt P01009 25-418; P02647 25-267)
